Measurements published in publication PMC10175095 (Therapeutic drug monitoring, 2023).

Assays:
[1] = Reinjection stability in final extract; type: physicochemical; settings: reinjected, 4°C, autosampler, 25.95 h, nominal 15 ng/mL
[2] = Long-term stability of unprocessed plasma samples at −80°C; type: in vitro ADME; settings: human plasma, 12 months, nominal 150 ng/mL

- Accuracy vs. nominal concentration [1]: 109%
- Accuracy vs. nominal concentration [2]: 109%
SMILES: CCN1CCN(Cc2ccc(Nc3ncc(F)c(-c4cc(F)c5nc(C)n(C(C)C)c5c4)n3)nc2)CC1 [Abemaciclib, abemaciclib]
